This note sets out measurements from US11759461B2, “Small molecule inhibitors of cancer stem cells and mesenchymal cancer types” (The Scripps Research Institute, priority 2017, dated 2023).

The series concerns FOXC2-expressing HMLER cells. Put plainly: Cell Titer Glo viability of FOXC2-HMLER cells (high throughput screen and 10-point response). Type of series: cell-based, human. As to conditions: FOXC2-HMLER vs control HMLER. The method, then: For high throughput screening, FOXC2-HMLER and HMLER cells were plated at 10^3 cells per well in white 384-well plates in 50 μL of MEGM medium (Lonza). Cells were allowed to attach for one hour before compound was transferred to each well as a DMSO solution using a 100 nL pintool head affixed to a PerkinElmer FX instrument. After 72-hour incubation, 30 μL of a Cell Titer Glo solution (diluted 1:6 in water, Promega) was dispensed into each well and luminance values were recorded using an Envision plate reader. […] All other miniaturized, selective viability experiments were performed as above using the indicated growth medium.
More specifically, in the high throughput screening assay above, each cell line was plated at 1,000 cells per well in 384-well plates, treated for 72 hours with 2 μM of test compound, and the viability of each line was determined in parallel by Cell Titer Glo (Promega) luminance measurements.
Background: In ATP-based viability assays light output follows the ATP content of the culture.

Take `CC1=C(CO)C(=O)O[C@@H]([C@@H](C)[C@H]2CC[C@H]3[C@@H]4C[C@H]5O[C@]56[C@@H](O)C=CC(=O)[C@]6(C)[C@H]4CC[C@]23C)C1` [WIF-A, Withaferin A, reference compound]: the “cytotoxic index, FOXC2-HMLER relative to control cells” value is recorded as around 10 fold.
